Experiments:
SMARCA4 [1] = biological target: T1, SMARCA4 (Homo sapiens, UniProt P51532); assay: SMARCA4 degradation in HeLa cells (Western blot); type: cell-based; design: endogenous in cells; settings: 4 h, read-out: Degradation rate of SMARCA4 in HeLa cells (%)
Procedure: HeLa cells were seeded at 1.2 x 10^5 cells/well in a 6-well plate. 2 mL of EMEM medium supplemented with 10% FBS was added to each well and the culture dish was incubated overnight to allow the cells to adhere. […] The cells were returned to the incubator and incubated for another 4 hours.
(§1) After 4 hours, cells were harvested, the culture medium was aspirated, and the cells were rinsed once with 1 mL/well PBS. The PBS was aspirated, and 40 µL/well of RIPA lysis buffer containing protease inhibitors was added. After lysis and centrifugation, total protein extracts were obtained, and protein concentration in the extracts was determined by BCA assay. Protein electrophoresis was performed by SDS-PAGE, followed by constant voltage electrophoresis at 100 V for 60 minutes and the protein was then transferred to a PVDF membrane. The PVDF membrane was blocked in 5% skim milk powder for 1 hour at room temperature. […] After washing the membrane, secondary antibodies were added and incubated at room temperature for 1 hour (protected from the light). After washing, the membrane was exposed using an Odyssey luminometer. Grayscale analysis of bands was performed using Image Studio software.
(§2) The degradation rate (%) of SMARCA2/4 by the PROTAC compounds of the present invention in HeLa cells and SW1573 cells is shown in Table 10. Table 10 Degradation rate of SMARCA2/4 by PROTAC compounds of the present invention in HeLa cells and SW1573 cells (%)

The chains behind the UniProt entries cited, without tags or fusion partners.
UniProt P51532, whole entry: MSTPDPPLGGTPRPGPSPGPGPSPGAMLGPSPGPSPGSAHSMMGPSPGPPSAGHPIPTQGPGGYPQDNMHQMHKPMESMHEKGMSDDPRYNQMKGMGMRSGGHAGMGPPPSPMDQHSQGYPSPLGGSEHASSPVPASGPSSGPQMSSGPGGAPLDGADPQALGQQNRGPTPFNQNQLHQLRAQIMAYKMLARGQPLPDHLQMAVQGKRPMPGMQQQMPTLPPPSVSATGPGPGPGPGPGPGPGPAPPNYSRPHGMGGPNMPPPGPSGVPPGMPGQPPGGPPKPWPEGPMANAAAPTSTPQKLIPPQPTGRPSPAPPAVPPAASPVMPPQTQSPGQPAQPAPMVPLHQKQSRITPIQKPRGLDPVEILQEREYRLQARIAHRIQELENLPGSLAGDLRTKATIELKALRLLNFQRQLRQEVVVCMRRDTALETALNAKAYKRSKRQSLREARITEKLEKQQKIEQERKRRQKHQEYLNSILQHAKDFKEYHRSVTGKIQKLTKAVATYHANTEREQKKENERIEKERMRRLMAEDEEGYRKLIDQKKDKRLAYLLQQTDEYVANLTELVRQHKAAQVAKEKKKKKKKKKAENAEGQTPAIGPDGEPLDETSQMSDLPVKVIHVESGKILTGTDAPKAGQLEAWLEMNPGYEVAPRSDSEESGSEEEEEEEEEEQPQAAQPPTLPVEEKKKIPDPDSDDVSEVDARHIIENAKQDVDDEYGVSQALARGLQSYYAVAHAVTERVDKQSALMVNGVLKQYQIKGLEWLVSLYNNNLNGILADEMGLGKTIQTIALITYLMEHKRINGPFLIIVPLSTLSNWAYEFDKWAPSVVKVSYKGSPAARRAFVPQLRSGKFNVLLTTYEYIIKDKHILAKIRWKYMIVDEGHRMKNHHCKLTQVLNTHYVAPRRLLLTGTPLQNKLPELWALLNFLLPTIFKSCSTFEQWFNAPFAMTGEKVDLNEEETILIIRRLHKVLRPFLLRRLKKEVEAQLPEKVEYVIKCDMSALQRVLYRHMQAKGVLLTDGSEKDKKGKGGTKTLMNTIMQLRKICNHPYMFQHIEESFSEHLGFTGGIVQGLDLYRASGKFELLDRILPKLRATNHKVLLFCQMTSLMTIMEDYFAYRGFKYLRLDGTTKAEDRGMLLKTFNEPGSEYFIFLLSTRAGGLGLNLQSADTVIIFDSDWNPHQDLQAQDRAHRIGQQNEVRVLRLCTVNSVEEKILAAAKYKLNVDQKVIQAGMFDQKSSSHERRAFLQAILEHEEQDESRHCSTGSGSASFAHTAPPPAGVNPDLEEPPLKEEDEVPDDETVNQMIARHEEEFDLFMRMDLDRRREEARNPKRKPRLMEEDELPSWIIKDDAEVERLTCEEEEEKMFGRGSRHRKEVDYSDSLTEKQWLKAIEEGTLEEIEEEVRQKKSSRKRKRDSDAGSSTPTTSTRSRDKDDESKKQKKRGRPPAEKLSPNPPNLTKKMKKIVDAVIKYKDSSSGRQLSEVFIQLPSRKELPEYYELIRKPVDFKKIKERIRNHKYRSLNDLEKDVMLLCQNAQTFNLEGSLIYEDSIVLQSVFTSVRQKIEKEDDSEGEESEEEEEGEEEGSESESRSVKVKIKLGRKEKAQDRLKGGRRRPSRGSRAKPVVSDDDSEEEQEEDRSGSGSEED

SMARCA4 [2] = biological target: T1, SMARCA4; assay: SMARCA4 degradation in SW1573 cells (Western blot); type: cell-based; design: endogenous in cells; host or cells: SW1573; settings: SW1573, 24 h, read-out: Degradation rate of SMARCA4 in SW1573 cells (%)
Procedure: SW1573 cells were seeded at 2x10^5Cells/well in a 6-well plate. 2 mL of EMEM medium supplemented with 10% FBS was added to each well and was incubated overnight to allow cell attachment. […] The cells were returned to the incubator and incubated for another 24 hours.
as §1, with “After 24” for “After 4”, “the” for “the culture”
as §2

| Structure (SMILES) | Dmax at 0.001 µM (SMARCA4 [1]) [%] | Dmax at 0.08 µM (SMARCA4 [1]) [%] | Dmax at 0.001 µM (SMARCA4 [2]) [%] | Dmax at 0.08 µM (SMARCA4 [2]) [%] |
| --- | --- | --- | --- | --- |
| Cn1c(=O)n(C2CCC(=O)NC2=O)c2cc3c(cc21)C1(CCN(C2CC4(CCC(C#Cc5cc(-c6ccccc6O)nnc5N)CC4)C2)CC1)CO3 (stereo not drawn) [SM-P-4, 3-(1'-(7-((3-amino-6-(2-hydroxyphenyl)pyridazin-4-yl)ethynyl)spiro[3.5]nonan-2-yl)-1-methyl-2-oxo-1,2-dihydro-3H,6H-spiro[benzofuro[5,6-d]imidazole-7,4'-piperidin]-3-yl)piperidine-2,6-dione] | 99 | 98 | 99 | 100 |
| Nc1nnc(-c2ccccc2O)cc1C#CC1CCC2(CC1)CC(N1CCC3(CC1)COc1cc(C(=O)N[C@H]4CCC(=O)NC4=O)c(F)cc13)C2 (stereo partly drawn) [SM-P-8] | 30 | 74 | -27 | -11 |
| COc1cc2c(cc1C(=O)N[C@H]1CCC(=O)NC1=O)C1(CCN(C3CC4(CCC(C#Cc5cc(-c6ccccc6O)nnc5N)CC4)C3)CC1)CO2 (stereo partly drawn) [SM-P-14, (S)-1'-(7-((3-amino-6-(2-hydroxyphenyl)pyridazin-4-yl)ethynyl)spiro[3.5]nonan-2-yl)-N-(2,6-dioxopiperidin-3-yl)-6-methoxy-2H-spiro[benzofuran-3,4'-piperidin]-5-carboxamide] | 4 | -21 | 6 | 7 |
| Nc1nnc(-c2ccccc2O)cc1C#CC1CCC2(CC1)CC(N1CCC3(CC1)COc1cc(F)c(C(=O)N[C@H]4CCC(=O)NC4=O)cc13)C2 (stereo partly drawn) [SM-P-21] | 17 | 18 | -7 | 16 |
| Cn1c(=O)n(C2CCC(=O)NC2=O)c2ccc3c(c21)OCC31CCN(C2CC3(CCC(C#Cc4cc(-c5ccccc5O)nnc4N)CC3)C2)CC1 (stereo not drawn) [SM-P-26, 3-(1'-(7-((3-amino-6-(2-hydroxyphenyl)pyridazin-4-yl)ethynyl)spiro[3.5]nonan-2-yl)-1-methyl-2-oxo-1,2-dihydro-3H,7H-spiro[benzofuro[6,7-d]imidazole-6,4'-piperidin]-3-yl)piperidine-2,6-dione] | 97 | 100 | 98 | 97 |
| Cn1c(=O)n(C2CCC(=O)NC2=O)c2ccc3c(c21)OCC31CCN(C[C@H]2CC[C@H](Cn3cc(-c4cc(-c5ccccc5O)nnc4N)cn3)CC2)CC1 (stereo partly drawn) [SM-P-29, 3-(1'-(((1r,4r)-4-((4-(3-amino-6-(2-hydroxyphenyl)pyridazin-4-yl)-1H-pyrazol-1-yl)methyl)cyclohexyl)methyl)-1-methyl-2-oxo-1,2-dihydro-3H,7H-spiro[benzofuro[6,7-d]imidazole-6,4'-piperidin]-3-yl)piperidine-2,6-dione] | 100 | 92 | 100 | 97 |
| Cn1c(=O)n(C2CCC(=O)NC2=O)c2cc3c(cc21)C1(CCN(C[C@H]2CC[C@H](Cn4cc(-c5cc(-c6ccccc6O)nnc5N)cn4)CC2)CC1)CO3 (stereo partly drawn) [SM-P-30, 3-(1'-(((1r,4r)-4-((4-(3-amino-6-(2-hydroxyphenyl)pyridazin-4-yl)-1H-pyrazol-1-yl)methyl)cyclohexyl)methyl)-1-methyl-2-oxo-1,2-dihydro-3H,6H-spiro[benzofuro[5,6-d]imidazole-7,4'-piperidin]-3-yl)piperidine-2,6-dione] | 100 | 94 | 100 | 98 |
| Cn1c(=O)n(C2CCC(=O)NC2=O)c2ccc3c(c21)OCC31CCN(C[C@H]2CC[C@H](n3cc(-c4cc(-c5ccccc5O)nnc4N)cn3)CC2)CC1 (stereo partly drawn) [SM-P-35] | 100 | 100 | 100 | 100 |
| Cn1c(=O)n(C2CCC(=O)NC2=O)c2cc3c(cc21)C1(CCN(C[C@H]2CC[C@H](n4cc(-c5cc(-c6ccccc6O)nnc5N)cn4)CC2)CC1)CO3 (stereo partly drawn) [SM-P-36] | 100 | 97 | 99 | 95 |
| Cn1c(=O)n(C2CCC(=O)NC2=O)c2ccc3c(c21)OCC31CCN(C2CN(c3cc(-c4ccccc4O)nnc3N)C2)CC1 (stereo not drawn) [SM-P-37, 3-(1'-(1-(3-amino-6-(2-hydroxyphenyl)pyridazin-4-yl)azetidin-3-yl)-1-methyl-2-oxo-1,2-dihydro-3H,7H-spiro[benzofuro[6,7-d]imidazole-6,4'-piperidin]-3-yl)piperidine-2,6-dione] | -12 | 15 | – | – |
| Cn1c(=O)n(C2CCC(=O)NC2=O)c2cc3c(cc21)C1(CCN(C2CN(c4cc(-c5ccccc5O)nnc4N)C2)CC1)CO3 (stereo not drawn) [SM-P-38, 3-(1'-(1-(3-amino-6-(2-hydroxyphenyl)pyridazin-4-yl)azetidin-3-yl)-1-methyl-2-oxo-1,2-dihydro-3H,6H-spiro[benzofuro[5,6-d]imidazole-7,4'-piperidin]-3-yl)piperidine-2,6-dione] | 7 | 26 | 17 | 6 |

Source: patent EP4722219A1 (Gan & Lee Pharmaceuticals Co., Ltd., priority 2023, dated 2024)
